Publication PMC2693926
“And” between values parts separate entries of the source, which are not always exact repeats. Identical values can stand only once.

Sequences of proteins named here, by UniProt entry; tags and fusion partners are left off. Residues count along the entry.
UniProt P22303, 32-614 limits assumed: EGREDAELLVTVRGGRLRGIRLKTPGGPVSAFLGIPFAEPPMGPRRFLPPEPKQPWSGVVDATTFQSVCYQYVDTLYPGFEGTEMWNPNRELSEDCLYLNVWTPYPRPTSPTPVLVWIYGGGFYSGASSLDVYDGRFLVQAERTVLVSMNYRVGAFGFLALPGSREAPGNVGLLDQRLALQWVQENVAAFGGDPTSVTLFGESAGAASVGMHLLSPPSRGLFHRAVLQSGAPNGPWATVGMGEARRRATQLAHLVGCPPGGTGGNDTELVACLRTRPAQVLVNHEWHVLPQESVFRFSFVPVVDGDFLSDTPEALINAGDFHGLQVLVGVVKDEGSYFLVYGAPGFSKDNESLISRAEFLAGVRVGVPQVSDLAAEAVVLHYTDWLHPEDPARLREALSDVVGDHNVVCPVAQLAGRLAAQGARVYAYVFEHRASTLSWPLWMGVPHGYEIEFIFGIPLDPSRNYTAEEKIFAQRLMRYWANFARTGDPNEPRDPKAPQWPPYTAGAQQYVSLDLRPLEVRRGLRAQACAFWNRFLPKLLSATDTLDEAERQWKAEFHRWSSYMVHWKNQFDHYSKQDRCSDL
UniProt P21836, 32-614 limits assumed: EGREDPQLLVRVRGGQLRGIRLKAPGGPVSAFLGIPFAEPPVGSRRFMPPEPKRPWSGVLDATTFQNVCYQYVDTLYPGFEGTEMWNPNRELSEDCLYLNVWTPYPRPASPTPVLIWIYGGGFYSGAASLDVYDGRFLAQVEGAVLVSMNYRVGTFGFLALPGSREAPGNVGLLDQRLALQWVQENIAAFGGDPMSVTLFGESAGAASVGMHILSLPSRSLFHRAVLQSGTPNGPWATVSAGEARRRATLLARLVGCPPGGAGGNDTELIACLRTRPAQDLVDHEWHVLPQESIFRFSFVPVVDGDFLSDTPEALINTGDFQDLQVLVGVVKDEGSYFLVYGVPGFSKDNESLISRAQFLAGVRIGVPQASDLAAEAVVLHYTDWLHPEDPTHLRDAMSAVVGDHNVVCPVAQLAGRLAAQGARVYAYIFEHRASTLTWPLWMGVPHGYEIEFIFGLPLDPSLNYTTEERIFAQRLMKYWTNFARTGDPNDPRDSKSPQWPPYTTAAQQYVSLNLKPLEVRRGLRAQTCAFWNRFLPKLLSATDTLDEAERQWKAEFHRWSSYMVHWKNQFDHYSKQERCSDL
UniProt P21836, 32-614 D105E limits assumed: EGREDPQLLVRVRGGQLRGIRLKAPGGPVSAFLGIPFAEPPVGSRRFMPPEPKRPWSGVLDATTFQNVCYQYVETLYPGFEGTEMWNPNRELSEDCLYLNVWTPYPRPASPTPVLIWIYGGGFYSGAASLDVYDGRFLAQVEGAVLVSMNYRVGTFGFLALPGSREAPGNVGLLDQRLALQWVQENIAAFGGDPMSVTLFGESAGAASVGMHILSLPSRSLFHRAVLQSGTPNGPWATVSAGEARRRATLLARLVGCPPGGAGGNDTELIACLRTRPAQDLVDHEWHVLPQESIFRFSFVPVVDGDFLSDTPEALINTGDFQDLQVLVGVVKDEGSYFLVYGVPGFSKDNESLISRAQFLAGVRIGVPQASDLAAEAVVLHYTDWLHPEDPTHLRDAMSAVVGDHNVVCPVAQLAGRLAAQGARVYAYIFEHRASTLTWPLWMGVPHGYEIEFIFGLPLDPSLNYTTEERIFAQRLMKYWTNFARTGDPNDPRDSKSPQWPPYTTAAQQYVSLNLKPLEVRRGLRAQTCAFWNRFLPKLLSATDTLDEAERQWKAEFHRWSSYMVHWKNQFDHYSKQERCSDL

Columns and labels:
DFP-hAChE = DFP-hAChE (Homo sapiens, UniProt P22303); assay: Reactivation kinetics of DFP-inhibited hAChE (discontinuous method); details: mean±S.D. of 2–4 determinations, buffer condition as reported in [8]
[1] = biological target: wild-type non-phosphonylated mAChE (Mus musculus, UniProt P21836); details: substrate acetylthiocholine, mean of 8 determinations±S.D., pH 8.0, 30°C
hAChE = hAChE (Homo sapiens, UniProt P22303); details: substrate acetylthiocholine, mean of 8 determinations±S.D., pH 8.0, 30°C
Asp74Glu mAChE = Asp74Glu mAChE (Mus musculus, UniProt P21836, D105E)
[2] = test system: Phe295Leu, Phe297Ile, and Trp86Ala iPrMP-mAChE; details: substitutions Phe295Leu; cited from earlier work
[3] = test system: Tyr337Ala mutant of mAChE; details: cited from earlier work
Trp286Ala iPrMP-mAChE = details: Trp286Ala substitution of iPrMP-mAChE; cited from earlier work
[4] = test system: Tyr124Glu mutation of iPrMP-mAChE; details: cited from earlier work

SMILES: NC(=O)c1cc[n+](CCC[n+]2ccc(/C=N/O)cc2)cc1.[Br-].[Br-]
- kr hAChE DFP (DFP-hAChE): 0.047 min^−1 and 0.047±0.003 ^c min^−1

SMILES: CC(=O)SCC[N+](C)(C)C
- Km [1]: 81 µM
- Km (hAChE): 124 µM
- Km (Asp74Glu mAChE): 182 µM

SMILES: Cl.NC(=O)c1cc[n+](COCN2C=CC=C/C2=C\N=O)cc1.[Cl-]
- change of the bimolecular rate constant [2]: 0.9- to 1.4 fold
- decrease in affinity [3]: 30 fold
- reduction of the bimolecular rate constant [3]: 5.5 fold
- reduction of the bimolecular reactivation rate constant (Trp286Ala iPrMP-mAChE): 3 fold
- decrease of the bimolecular reactivation rate constant [4]: 36 fold
